The text below walks through data of BindingDB's records for US10336717, “Inhibitors of beta-secretase” (2019).

In this experiment the target is Beta-secretase 1 (Homo sapiens, UniProt P56817). The experiment in a line: BACE Assay.

Broadly, the IC50 is the concentration that inhibits the measured activity by half. Regarding `CO[C@H]1CC[C@]2(CC1)Cc1ccc(Br)cc1C21N=C(N)N(C)C1=O` (stereo partly specified), the IC50 worked out at 32.3 nM.
